Assay results as given in ChEMBL document CHEMBL1138259, “Novel fluorinated derivatives of the broad-spectrum MMP inhibitors N-hydroxy-2(R)-[[(4-methoxyphenyl)sulfonyl](benzyl)- and (3-picolyl)-amino]-3-methyl-butanamide as potential tools for the molecular imaging of activated MMPs with PET” (J Med Chem, 2007).

Chains of the proteins cited; added tags and fusions are not shown. Lines headed by an entry give the natural chain unless they say otherwise; changes in a name come on top.
UniProt P22894: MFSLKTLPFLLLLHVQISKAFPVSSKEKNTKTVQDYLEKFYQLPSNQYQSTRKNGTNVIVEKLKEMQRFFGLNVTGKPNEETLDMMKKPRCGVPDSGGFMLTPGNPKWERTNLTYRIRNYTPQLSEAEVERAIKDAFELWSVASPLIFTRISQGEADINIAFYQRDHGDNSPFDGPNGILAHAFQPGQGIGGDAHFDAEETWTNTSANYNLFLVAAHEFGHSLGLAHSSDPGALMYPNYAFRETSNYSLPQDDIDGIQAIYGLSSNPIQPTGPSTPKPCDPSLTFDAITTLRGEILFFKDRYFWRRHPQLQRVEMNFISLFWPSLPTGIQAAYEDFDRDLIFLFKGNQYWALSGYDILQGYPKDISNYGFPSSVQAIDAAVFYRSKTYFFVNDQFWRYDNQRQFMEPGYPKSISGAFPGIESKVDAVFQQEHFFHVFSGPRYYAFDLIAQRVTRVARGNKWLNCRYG

Target: Neutrophil collagenase (Homo sapiens, UniProt P22894)
Assay: Inhibition of MMP8
Procedure, shortened: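 Human active MMP (2 nM) preincubated with inhibitor (10 pM-1 mM) for 30 min at 37 °C in 50 mM Tris·HCl pH 7.5, 0.2 M NaCl, 5 mM CaCl₂, 20 µM ZnSO₄, 0.05% Brij 35. Fluorogenic Mca-Pro-Leu-Gly-Leu-Dpa-Ala-Arg-NH₂ substrate added (10 µL of 50 µM stock to 90 µL).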

## COc1ccc(S(=O)(=O)N(Cc2cccnc2)[C@@H](C(=O)NO)C(C)C)cc1 [CGS-27023A]
  IC50: 2 nM
